Tests used:
D1 receptors = biological target: T1, D1 receptors (Rattus norvegicus, UniProt P18901); assay: D1 receptor binding in rat striatum, [125I]-SCH-23982; conditions: radioligand [125I]-SCH-23982
T1 construct: from tissue; host or cells: rat striatum

By UniProt entry, the sequences of proteins in these tests, tags left out.
UniProt P18901, whole entry: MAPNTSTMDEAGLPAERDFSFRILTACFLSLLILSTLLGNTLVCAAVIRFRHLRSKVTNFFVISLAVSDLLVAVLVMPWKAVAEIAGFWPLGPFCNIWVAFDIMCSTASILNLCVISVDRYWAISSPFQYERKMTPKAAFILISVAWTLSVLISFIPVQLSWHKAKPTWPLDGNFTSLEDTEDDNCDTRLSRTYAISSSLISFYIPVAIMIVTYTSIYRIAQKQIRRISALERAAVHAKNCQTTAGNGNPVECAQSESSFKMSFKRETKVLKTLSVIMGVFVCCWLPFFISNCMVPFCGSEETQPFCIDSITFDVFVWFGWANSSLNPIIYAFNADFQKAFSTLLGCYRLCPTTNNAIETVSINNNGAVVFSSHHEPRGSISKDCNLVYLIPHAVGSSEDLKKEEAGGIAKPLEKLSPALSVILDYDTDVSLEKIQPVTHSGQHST
UniProt P61169, whole entry: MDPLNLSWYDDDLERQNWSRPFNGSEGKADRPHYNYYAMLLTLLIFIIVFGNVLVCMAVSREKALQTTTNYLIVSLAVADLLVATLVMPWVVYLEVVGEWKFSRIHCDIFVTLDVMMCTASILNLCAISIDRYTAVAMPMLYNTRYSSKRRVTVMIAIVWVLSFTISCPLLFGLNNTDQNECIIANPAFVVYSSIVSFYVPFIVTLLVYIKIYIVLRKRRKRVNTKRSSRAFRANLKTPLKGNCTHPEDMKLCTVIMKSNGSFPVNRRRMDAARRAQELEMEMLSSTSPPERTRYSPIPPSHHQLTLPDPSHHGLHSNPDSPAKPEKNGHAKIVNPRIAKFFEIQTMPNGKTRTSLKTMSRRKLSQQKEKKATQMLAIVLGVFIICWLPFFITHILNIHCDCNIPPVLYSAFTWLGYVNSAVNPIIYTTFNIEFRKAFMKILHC

D2 receptors = D2 receptors (Rattus norvegicus, UniProt P61169); assay: biochemical

| Structure (SMILES) | Ki (D1 receptors) [nM] | Ki (D2 receptors) [nM] |
| --- | --- | --- |
| Oc1ccc2c(c1O)Cc1cccc3c1[C@H]2CNC3 [(−)-Dinapsoline] | 4550 | 589 |
| Oc1ccc2c(c1O)Cc1cccc3c1[C@@H]2CNC3 [(+)-Dinapsoline, R-(+)-8,9-Dihydroxy-2,3,7,11b-tetrahydro-1H-napth[1,2,3-de]isoquinoline] | 48 | 43 |
| Oc1ccc2c(c1O)Cc1cccc3c1C2CNC3 (racemic) [(+/−)-Dinapsoline, (±)-8,9-Dihydroxy-2,3,7,11b-tetrahydro-1H-napth[1,2,3-de]isoquinoline] | 34 | 50 |

From patent US7091212B2, “Chiral dinapsoline” (Purdue Research Foundation, priority 2001, dated 2006)
